Reference: PubChem BioAssay AID602417 (Sanford-Burnham Center for Chemical Genomics, 2012)
The entries are a selection whose mix differs from that of the whole data set. Active and inactive are the calls of the source.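 How the source made its calls: active means at 20 µM dose, 40% or more inhibition averaged across four replicates; inactive means the rest.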

Assay: inhibition of PEG-3 promoter luciferase signal – cell-based, HeLa, luciferase reporter, single concentration, confirmation (AID 602417)
Conditions: HeLa PEG-Prom luciferase reporter, luminescence, overnight; at 20 µM; hits give high values
In the case of COc1cccc(C(c2nnnn2C2CCCCC2)N2CCC(n3c(=O)[nH]c4ccccc43)CC2)c1OC (centres undefined), the inhibition is reported as inactive: -10.1%.
In the case of CCCCn1nnnc1C(c1cccc2ccccc12)N1CCC(n2c(=O)[nH]c3ccccc32)CC1 (centres undefined), the inhibition is reported as inactive: 24.7%.
In the case of O=c1[nH]c2ccccc2n1C1CCN(C(c2cccc3ccccc23)c2nnnn2C2CCCC2)CC1 (centres undefined), the inhibition is reported as active: 47.7%.
For CCCCn1nnnc1C(c1cccs1)N1CCC(n2c(=O)[nH]c3ccccc32)CC1 (centres undefined), the inhibition was active: 55.2%.
